The source of these data is IntAct's records for PubMed 18376416.

B1: ADP-ribosylation factor-like protein 3 (Mus musculus), Q9WUL7 (parent)
chain: MGLLSILRKLKSAPDQEVRILLLGLDNAGKTTLLKQLASEDISHITPTQGFNIKSVQSQGFKLNVWDIGGQRKIRPYWRSYFENTDILIYVIDSADRKRFEETGQELTELLEEEKLSCVPVLIFANKQDLLTAAPASEIAEGLNLHTIRDRVWQIQSCSALTGEGVQDGMNWVCKNVNAKKK
partner: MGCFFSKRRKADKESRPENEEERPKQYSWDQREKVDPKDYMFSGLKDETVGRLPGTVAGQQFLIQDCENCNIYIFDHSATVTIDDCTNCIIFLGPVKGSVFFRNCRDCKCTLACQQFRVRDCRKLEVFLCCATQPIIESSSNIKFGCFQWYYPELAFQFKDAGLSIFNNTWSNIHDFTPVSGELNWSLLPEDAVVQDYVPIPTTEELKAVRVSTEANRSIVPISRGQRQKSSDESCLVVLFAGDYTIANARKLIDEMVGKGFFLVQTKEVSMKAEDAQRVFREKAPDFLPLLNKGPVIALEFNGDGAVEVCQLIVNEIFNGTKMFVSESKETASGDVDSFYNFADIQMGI

The variants in one experiment derive from B1. As to conditions: with xrp2_human RP2, O75695.
Turning to E164A;D168A, the “effect of a mutation on the interaction” value was “decreasing interaction”.

Take R72A: the “effect of a mutation on the interaction” value is listed as “decreasing interaction”.

Variants of B1 are the subject of the next experiment. As to conditions: with xrp2_human RP2, O75695. This is another data set of the same source.
On to Q71L, for which the “effect of a mutation on the interaction” value is “disrupting interaction”.
